Where two headings read alike, the source gives them in different places.

This data set is described as follows: Partition coefficients (octanol/aqueous). The data set is classed as physicochemical. To be noted: read-out: partition coefficient D (LogD, octanol/aqueous).

In the case of `O=c1c(-c2ccc(O)cc2)coc2c([C@@H]3O[C@H](CO)[C@@H](O)[C@H](O)[C@H]3O)c(O)ccc12` [Puerarin, puerarin], the logD at 24 h by setting is: (pH 6.8, 24 hours equilibration) -0.42 ± 0.15; (pH 7.4, pH7.4, 24 hours equilibration) 0.06 ± 0.02.

The values are drawn from publication PMC3253046 (Chinese Medicine, 2011).
